In patent US20190367631A1 (Regeneron, published 2019):

Target: T1, mouse MSR1 on RAW264.7 cells (mouse, UniProt P30204 1-458)
T1 construct: whole, on cells; also called MSR1 positive RAW264.7 cells
T1 sequence (looked up): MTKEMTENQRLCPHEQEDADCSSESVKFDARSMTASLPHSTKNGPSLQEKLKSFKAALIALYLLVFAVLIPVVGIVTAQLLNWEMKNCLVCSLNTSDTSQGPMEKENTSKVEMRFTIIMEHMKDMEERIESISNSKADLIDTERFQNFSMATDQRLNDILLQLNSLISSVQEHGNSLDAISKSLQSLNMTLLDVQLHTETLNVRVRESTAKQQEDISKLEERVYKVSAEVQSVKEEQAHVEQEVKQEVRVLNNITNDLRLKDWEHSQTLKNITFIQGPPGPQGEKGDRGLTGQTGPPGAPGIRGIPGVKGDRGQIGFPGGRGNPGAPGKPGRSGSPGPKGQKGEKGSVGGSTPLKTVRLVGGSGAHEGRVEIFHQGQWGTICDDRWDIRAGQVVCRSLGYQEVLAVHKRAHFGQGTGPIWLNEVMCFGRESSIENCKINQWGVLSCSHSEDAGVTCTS
Test: flow cytometry, RAW264.7 cells

B1: H1H27771P2-N297Q (antibody, human IgG1, V domains shown)
VH: EVQLVESGGGLVQPGGSLRLSCAASGFTFSSYGMNWVRQAPGKGLEWVSVISGSGGSTYYADSVKGRFTISRDNSKNTLYLQMNSLRAEDTAVYYCAKDRWTYYYDSSGSPFDYWGQGTLVTVSS
VL: not shown
notes: human IgG1 Fc with N297Q; also called H1H27771P-N297Q
MFI: 4060 MFI
